Laboratory results: patent US20090311217A1, “3-SUBSTITUTED-1H-INDOLE COMPOUNDS, THEIR USE AS MTOR KINASE AND PI3 KINASE INHIBITORS, AND THEIR SYNTHESES” (priority 2008, published 2009)
pIC50: −log10 of the molar value.

Chains of the proteins cited; added tags and fusions are not shown.
UniProt P42336, whole entry, species assumed: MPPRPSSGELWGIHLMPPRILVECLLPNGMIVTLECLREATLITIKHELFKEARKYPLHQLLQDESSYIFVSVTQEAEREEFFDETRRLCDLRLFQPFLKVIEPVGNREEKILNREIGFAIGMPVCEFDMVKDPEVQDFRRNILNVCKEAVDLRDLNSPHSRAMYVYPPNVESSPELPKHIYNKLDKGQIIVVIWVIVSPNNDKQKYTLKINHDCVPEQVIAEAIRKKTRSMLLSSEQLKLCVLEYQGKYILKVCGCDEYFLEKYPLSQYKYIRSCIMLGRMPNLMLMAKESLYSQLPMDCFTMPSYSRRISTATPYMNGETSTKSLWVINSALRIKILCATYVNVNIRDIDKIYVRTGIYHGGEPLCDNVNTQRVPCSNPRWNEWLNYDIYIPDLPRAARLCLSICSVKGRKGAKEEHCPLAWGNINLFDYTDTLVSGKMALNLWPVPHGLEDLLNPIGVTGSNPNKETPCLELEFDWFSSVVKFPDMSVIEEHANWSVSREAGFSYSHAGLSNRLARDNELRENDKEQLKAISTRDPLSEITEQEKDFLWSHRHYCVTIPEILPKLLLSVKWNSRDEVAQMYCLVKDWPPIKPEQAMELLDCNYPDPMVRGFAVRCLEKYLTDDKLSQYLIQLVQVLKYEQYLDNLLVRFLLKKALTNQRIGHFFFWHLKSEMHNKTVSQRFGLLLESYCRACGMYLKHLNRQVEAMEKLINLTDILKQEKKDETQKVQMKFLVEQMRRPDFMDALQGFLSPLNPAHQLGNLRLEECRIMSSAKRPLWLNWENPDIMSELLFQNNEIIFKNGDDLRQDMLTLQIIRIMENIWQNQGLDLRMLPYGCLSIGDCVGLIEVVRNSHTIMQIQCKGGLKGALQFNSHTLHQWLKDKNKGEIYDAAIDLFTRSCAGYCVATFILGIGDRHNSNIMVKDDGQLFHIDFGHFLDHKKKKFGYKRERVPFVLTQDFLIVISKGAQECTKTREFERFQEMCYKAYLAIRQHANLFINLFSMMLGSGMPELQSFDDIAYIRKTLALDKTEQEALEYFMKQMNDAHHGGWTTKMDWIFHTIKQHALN

Target: PI3K-alpha (Homo sapiens, UniProt P42336)
Assay: PI3K-alpha fluorescence polarization assay
Assay type: biochemical
Conditions: read-out: PI3Kα Avg. IC50

pIC50: 8.49
SMILES: COc1ccc2[nH]c(-c3ccccc3)c(C=C3Oc4cc(O)cc(O)c4C3=O)c2c1 [Example 70, 4,6-dihydroxy-2-[(5-methoxy-2-phenyl-1H-indol-3-yl)methylene]-1-benzofuran-3(2H)-one]
